Laboratory results published in ChEMBL document CHEMBL1141545, “Synthesis and biological evaluation of 3,5-diaminoindazoles as cyclin-dependent kinase inhibitors” (Bioorg Med Chem Lett, 2008).

test system: not listed separately; assay: Selectivity for CDK2 over CDK1

Compound | Ratio IC50
CS(=O)(=O)c1ccc(CC(=O)Nc2n[nH]c3ccc(N4CCCS4(=O)=O)cc23)cc1 | < 10
O=C(Cc1ccc(Cl)cc1)Nc1n[nH]c2ccc(N3CCCS3(=O)=O)cc12 | < 10
O=C(Cc1ccc(N2CCCCC2)cc1)Nc1n[nH]c2ccc(N3CCCS3(=O)=O)cc12 | < 10
CSc1ccc(CC(=O)Nc2n[nH]c3ccc(N4CCCS4(=O)=O)cc23)cc1 | < 10
CCN(CC)c1ccc(CC(=O)Nc2n[nH]c3ccc(N4CCCS4(=O)=O)cc23)cc1 | < 10

The next lines start with the values.

Ratio IC50 | Compound
< 10 | O=C(Cc1ccc(O)cc1)Nc1n[nH]c2ccc(N3CCCS3(=O)=O)cc12
< 10 | O=C(Cc1ccccc1)Nc1n[nH]c2ccc(N3CCCS3(=O)=O)cc12
< 10 | O=C(Cc1ccc(-c2ccccc2)cc1)Nc1n[nH]c2ccc(N3CCCS3(=O)=O)cc12

molecular target: Cyclin-dependent kinase 2 (Homo sapiens, UniProt P24941); assay: Inhibition of CDK2

IC50 [µM] | Compound
0.03 | O=C(Cc1ccc(N2CCCCC2)cc1)Nc1n[nH]c2ccc(N3CCCS3(=O)=O)cc12
